Source: article PMC5942844, “Identification and characterization of the Fasciola hepatica sodium- and chloride-dependent taurine transporter” (PLoS Neglected Tropical Diseases, 2018)

Target: T1, F. hepatica taurine transporter (FhTauT) (Fasciola hepatica, UniProt A0A2R4LGM2)
T1 sequence (A0A2R4LGM2 1-647): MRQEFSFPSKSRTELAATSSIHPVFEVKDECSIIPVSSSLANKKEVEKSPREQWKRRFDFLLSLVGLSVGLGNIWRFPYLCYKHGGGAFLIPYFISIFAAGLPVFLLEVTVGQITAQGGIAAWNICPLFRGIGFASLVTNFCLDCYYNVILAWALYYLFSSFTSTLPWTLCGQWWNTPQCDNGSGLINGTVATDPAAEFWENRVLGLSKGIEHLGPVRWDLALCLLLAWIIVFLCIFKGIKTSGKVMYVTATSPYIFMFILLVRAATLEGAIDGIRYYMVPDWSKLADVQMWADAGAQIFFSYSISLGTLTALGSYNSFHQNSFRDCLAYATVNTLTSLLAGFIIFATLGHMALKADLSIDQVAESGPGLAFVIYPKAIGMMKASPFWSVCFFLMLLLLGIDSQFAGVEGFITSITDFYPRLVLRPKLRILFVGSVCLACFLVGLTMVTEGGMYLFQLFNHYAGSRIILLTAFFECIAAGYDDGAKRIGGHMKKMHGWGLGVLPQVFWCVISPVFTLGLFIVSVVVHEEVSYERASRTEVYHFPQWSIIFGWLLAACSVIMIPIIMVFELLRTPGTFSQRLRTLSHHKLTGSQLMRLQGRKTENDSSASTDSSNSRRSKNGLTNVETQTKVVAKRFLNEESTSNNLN
Conditions: inhibitors of GABA uptake or GABA degradation
Experimental: Human embryonic kidney-293 (HEK293 (ATCC CRL-1573, LGC standards Wesel, Germany)) cells, were grown in Dulbecco`s modified Eagle medium (DMEM) supplemented with 10% fetal bovine serum (FCS Nuaille, France), 100 units/ml penicillin and 100 μg/ml streptomycin at 37°C and with 5% CO2 in a humidified incubator. Cells were transfected with plasmids encoding fluorescently tagged or untagged versions of F. hepatica (FhTauT) and H. sapiens (HsTauT) taurine transporter using Jet Prime transfection reagent (Polyplus-transfection, France). To generate monoclonal cell lines stably expressing the transporters, transfected cells were subjected to and selected with the concentration of 0.2 mg/ml geneticin (G418) for 10 days. Surviving cells forming colonies were separated and analyzed for membrane localization of transporters and transport of taurine. After the selection process cells were kept at 50 μg/ml G418 to keep the selection pressure.
For saturation uptake experiments, cells were plated the day before the experiment at a density of about 50,000 cells/well onto poly (D-lysine)-coated 48-well culture plates (CytoOne, USA). […] Non-specific uptake was determined by incubating cells in the presence of the blocker β-alanine (100 mM) before and during the experiment and subtracted from uptake values. […]

## O=C(O)C1CCCNC1 (stereo not shown) [nipecotic acid]
  inhibition of the transporter (taurine uptake): failed to inhibit
